The values below come from US10501436B2, “Compounds and methods of use” (Medivation Technologies LLC, priority 2014, dated 2019).

This assay concerns p-SMAD2. In words: p-SMAD2 inhibition, Western Blot Analysis in MDA-MB-231 cells treated with TGFβ. Format: cell-based. The conditions noted are these: TGFβ 2 ng/mL, samples run in triplicate; for Average p-SMAD2 inhibition @ 0.1 μM (% Inh) / inhibition at 0.1 µM: 0.1 μM compound; for Average p-SMAD2 inhibition @ 0.5 μM (% Inh) / inhibition at 0.5 µM: 0.5 μM compound; for inhibition at 0.1 µM / inhibition at 0.5 µM: Homo sapiens; for inhibition at 0.1 µM: read-out: Average p-SMAD2 inhibition @ 0.1 μM (% Inh); for inhibition at 0.5 µM: read-out: Average p-SMAD2 inhibition @ 0.5 μM (% Inh).

In the case of `CC(O)CNC(=O)c1cnccc1Nc1cc(-c2cc(Cl)ccc2F)ncc1C(C)C` (single isomer, unassigned) [Compound 2a], the “Average p-SMAD2 inhibition @ 0.1 μM (% Inh)” value is 26.33 % Inh and the “Average p-SMAD2 inhibition @ 0.5 μM (% Inh)” value worked out at 77.67 % Inh.

As to `CCc1cnc(-c2cc(Cl)ccc2F)cc1Nc1ccncc1C(=O)NCC(C)O` (single isomer, unassigned) [Compound 11a], the “Average p-SMAD2 inhibition @ 0.1 μM (% Inh)” value amounted to 44.67 % Inh and the “Average p-SMAD2 inhibition @ 0.5 μM (% Inh)” value turned out to be 96.00 % Inh.

Regarding `CC(O)CNC(=O)c1cncnc1Nc1cc(-c2cc(Cl)ccc2F)ncc1C(C)C` (single isomer, unassigned) [Compound 12a], the “Average p-SMAD2 inhibition @ 0.1 μM (% Inh)” value is on record as 64.33 % Inh and the “Average p-SMAD2 inhibition @ 0.5 μM (% Inh)” value is 93.00 % Inh.

Take `COc1cnc(-c2cc(Cl)ccc2F)cc1Nc1ccncc1C(=O)NCC(C)O` (single isomer, unassigned) [Compound 13a]: the “Average p-SMAD2 inhibition @ 0.1 μM (% Inh)” value was 59.00 % Inh and the “Average p-SMAD2 inhibition @ 0.5 μM (% Inh)” value was 93.67 % Inh.

By inhibition is commonly meant the relative decrease from the control value, in per cent. Take `COC(C)(C)c1cnc(-c2cc(Cl)ccc2F)cc1Nc1ccncc1C(=O)NCC(C)O` (single isomer, unassigned) [Compound 17a, 4-[[2-(5-chloro-2-fluoro-phenyl)-5-(1-methoxy-1-methyl-ethyl)-4-pyridyl]amino]-N-(2-hydroxypropyl)pyridine-3-carboxamide]: the inhibition at 0.1 µM was 25.3% and the inhibition at 0.5 µM was 81.7%.

For the compound `C=C(C)c1cnc(-c2cc(Cl)ccc2F)cc1Nc1ccncc1C(=O)N[C@@H](CC)CO` (single isomer, unassigned) [Compound 24a], the inhibition at 0.1 µM stood at 17% and the inhibition at 0.5 µM came to 68.3%.

As to `C=C(C)c1cnc(-c2cc(Cl)ccc2F)cc1Nc1ncncc1C(=O)NC[C@H](C)O` [Compound 4a, (S)-4-(2-(5-chloro-2-fluorophenyl)-5-(prop-1-en-2-yl)pyridin-4-ylamino)-N-(2-hydroxypropyl)pyrimidine-5-carboxamide], the inhibition at 0.1 µM was found to be 72.7% and the inhibition at 0.5 µM is 99.7%.

With `CC(C)c1cnc(-c2cc(Cl)ccc2F)cc1Nc1ccncc1C(=O)N[C@@H](C)CO` [Compound 6a, (S)-4-(2-(5-chloro-2-fluorophenyl)-5-isopropylpyridin-4-ylamino)-N-(1-hydroxypropan-2-yl)nicotinamide], the inhibition at 0.1 µM was found to be 53.7% and the inhibition at 0.5 µM was determined as 98.3%.
